Patent publication US20070207975A1, “Materials and methods for treating and preventing Her-2/neu overexpressing, FAS-elevated cancer cells” (EVANSTON NORTHWESTERN HEALTHCARE, priority 2006, published 2007)

System: SK-Br3 and BT-474 cells
Experiment: Anchorage-dependent cell proliferation (Coulter Counter)
Type: cell-based, human
Settings: low concentrations of OA, increasing concentrations of trastuzumab, or combination, 6 days
Method: FIG. 3. […] (A) Left panel: exponentially growing SK-Br3 and BT-474 cells were trypsinized and plated in 24-well plates at a density of 10,000 cells/well. Cells were incubated for 24 hours to allow for attachment and starved for serum overnight, after which a zero time point was determined. Cells were treated with OA, trastuzumab, or combinations of these compounds, as specified. Cells were counted at days 0, 3 and 6 with a Coulter Counter. All assays were performed three times in triplicate. The data are presented as mean number of cells×10^4/well (columns)±SD (bars) after 6 days treatment. […] Colony formation (≧50 μm) was assessed using a colony counter. Each experimental value represents the mean colony number (columns)±SD (bars) from three separate experiments in which triplicate dishes were counted. […]
SK-Br3 and BT-474 cells exponentially growing in IMEM-5% FBS were trypsinized and re-plated in 24-well plates at a density of 10,000 cells/well. Cells were incubated for 24 hours to allow for attachment, after which a zero time point was determined. […] Cell number was determined at days 0, 3 and 6 with a Coulter Counter (Coulter Electronics, Inc., Hialeah, Fla.). […]

“trastuzumab: humanized monoclonal IgG1, binding with high affinity to the ectodomain of p185^Her-2/neu [reference compound]” was tested, and the anchorage-dependent cell growth was “significantly decreased”.
